This is an account of results in PubChem BioAssay AID463190 (Sanford-Burnham Center for Chemical Genomics, 2010).

This is a selection; strong and weak results do not stand in their true shares. Some tests of the compounds listed are not included; inactive here does not mean inactive elsewhere. Activity calls are given as the source filed them.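 How the source made its calls: active means inhibition of at least 40%; inactive means the rest.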

A short description of the assay: growth inhibition of tim10-1 ts yeast – luminescence, uHTS, primary screen (AID 463190).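 Further: mutant grown at 25 °C; 0% = DMSO wells with yeast and 100% = wells holding no yeast.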 Conditions: S. cerevisiae tim10-1 ts strain growth, BacTiter-Glo, 24 h; at 20 µM; hits give high values.
Take `CCN(CC)CC(C)C(C)OC(=O)C(O)(c1ccccc1)c1ccccc1` (centres undefined): the inhibition (in general, the change of the read-out against control, counted positive when it falls) is inactive: -7.35%.

Regarding `COc1cc(SC)ccc1C(=O)NCC1(N(C)C)CCCCC1`, the inhibition is inactive: 7.43%. To `CC(C)N1C(=O)CC2(CCN(CCOC(=O)C(O)(c3ccccc3)c3ccccc3)CC2)C1=O` belongs inactive: -13.9%.

Take `Cc1ccc(C(=O)NCC2(N3CCCCC3)CCCCC2)cc1`: the inhibition is inactive: -4.72%. To `O=C(NCC1(N2CCCCC2)CCCCC1)c1cc([N+](=O)[O-])ccc1Cl` belongs inactive: 11.9%; to `CN1[C@@H]2CC[C@H]1CC(OC(=O)C(O)(c1ccccc1)c1ccccc1)C2` (some centres undefined), inactive: -0.727%; to `C=CCN1CCN(CCOC(=O)C(O)(c2ccccc2)c2ccccc2)CC1`, inactive: 7%. For `O=C(NCC1(N2CCCCC2)CCCCC1)c1cc(F)c(F)cc1Cl` the value was inactive: -5.47%; for `COc1ccc(C(=O)NCC2(N(C)C)CCCCC2)cc1`, inactive: 13.6%. With `Cc1cc(C(=O)NCC2(N3CCCCC3)CCCCC2)ccc1[N+](=O)[O-]`, the inhibition was inactive: 18.4%. For `CCN1CCCC(OC(=O)C2(O)c3ccccc3C=Cc3ccccc32)C1` (centres undefined) the value was inactive: 9.54%; for `O=C(NCC1(N2CCCCC2)CCCCC1)c1cccc(Br)c1`, inactive: -2.78%; for `Cc1ccccc1C(=O)NCC1(N2CCCCC2)CCCCC1`, inactive: 12.7%. To `CN(C)C1CCCC1OC(=O)C(O)(c1ccccc1)c1ccccc1` (centres undefined) belongs inactive: 9.82%; to `CN(C)c1ccc(C(=O)NCC2(N(C)C)CCCCC2)cc1`, inactive: 5.55%; to `COc1cccc(C(=O)NCC2(N3CCCCC3)CCCCC2)c1`, inactive: 7.04%.

As for `COc1ccc(Cl)cc1C(=O)NCC1(N(C)C)CCCCC1`, the inhibition is inactive: 3.53%. For `O=C(NCC1(N2CCCCC2)CCCCC1)c1cccc(Cl)c1` the value was inactive: -8.66%; for `CN(C)C1(CNC(=O)c2ccc(Br)cc2)CCCCC1`, inactive: 24.1%; for `COc1cc(C(=O)NCC2(N(C)C)CCCCC2)c([N+](=O)[O-])cc1OC`, inactive: 14.2%.

As to `COc1ccc(Br)c(C(=O)NCC2(N3CCCCC3)CCCCC2)c1`, the inhibition was inactive: 16.7%. To `CC(C)Oc1ccc(C(=O)NCC2(N(C)C)CCCCC2)cc1` belongs inactive: -5.01%; to `CN(C)c1cccc(C(=O)NCC2(N(C)C)CCCCC2)c1`, inactive: -21.8%; to `O=C(OC1CN2CCC1CC2)C(CO)(c1ccccc1)c1ccccc1` (centres undefined), inactive: -0.706%.
